Compounds with a hit are over-represented: about 2.3% of the library has one in this group of screens.
Nrf2 ARE act – activates Nrf2 signaling. Potency, µM (titrated, usually from 46.1 µM), inactives show at the top dose activation, usual class: activators. AREc32 ARE-luciferase reporter (MCF7-derived line), luminescence, 24 h. AID 624171. actives 0.31% (n = 410,000); also: potency is read from the fitted curve at half-maximal effect; % of control where 0% means no effect; nearly all actives have a fitted effect of over 65% in size
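AREc32_Fluc, 1000 cells/well, OPTI-MEM + 5% FBS, o/n 37 deg C 5% CO2; 23 nL cpd by pin tool, 24 hr; Steady-Glo 30 min RT, luminescence.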
Mito fusion act – mitochondrial division inhibition or fusion activation; S. cerevisiae fusion-defective mutant growth rescue, CellTiterGlo 48 h; Potency, µM (top dose mostly 46.1 µM), for inactives: top-dose growth rescue (activation), usual class: activators; actives 0.23% (n = 320,000); AID 485298; also: potency is read from the fitted curve at half-maximal effect; % of control where 0% means no effect; nearly all actives have a fitted effect of over 45% in size
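S. cerevisiae fusion-defective temperature-sensitive mutants (e.g. fzo1-1, mgm1-5) grown 48 h at 37C in YPEG (ethanol/glycerol non-fermentable) medium with 23 nl compound per well; growth rescue read as CellTiterGlo luminescence.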
A549 viability – A549 cytotoxicity, counter-screen for Nrf2 inhibitors; A549 ARE-Fluc cells, CellTiter-Fluor viability, 18-24 h; actives 0.16% (n = 390,000); Potency, µM (top dose mostly 46 µM), inactives show at the top dose activity change, negative = cytotoxicity, hits mostly inhibitors; also: potency is read from the fitted curve at half-maximal effect; % is scaled to controls: 0 for no effect and ±100 for the full control effect
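A549 ARE_Fluc cells in 5% FBS OPTI-MEM were exposed to compounds in concentration-response for 18-24 h at 37 deg C. Viability was read by CellTiter-Fluor fluorescence (Ex 405/Em 525) after 30 min, before the luciferase read.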
Nrf2 block – blocks Nrf2 signaling; A549 ARE-Fluc reporter, luciferase luminescence, 18-24 h; Potency, µM (series often up to 46 µM), inactives show at the top dose activity change, negative = inhibition, most hits filed as inhibitors; actives 2.1% (n = 360,000); also: potency is read from the fitted curve at half-maximal effect; % is scaled to controls: 0 for no effect and ±100 for the full control effect; nearly all actives have a fitted effect of over 60% in size
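Nrf2 function is reported as luminescence of an ARE-controlled luciferase in A549 cells. Compounds were tested at several concentrations, and a CellTiter-Fluor read on the same wells flagged cytotoxicity.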
miR-21 FLuc – miR-21 reporter, rising signal; Potency, µM (doses to about 38.3 µM), without a hit: at the top dose reporter change, positive = more light; HeLa miR-21 FLuc reporter, luciferase, 48 h; 340,000 tested, under 10 active; active = well fitted rising curve with a large enough effect; inconclusive = small, poorly fitted or top-dose-only effect; inactive = no such curve, though single readings can be large or run the other way;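 further: % of control where 0% means no effect; miR-21 action dims this reporter so a rising signal means less miR-21 action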
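Compounds were titrated across several concentrations (up to approximately 40 uM) and incubated 48 hours with HeLa miR-21-FLuc reporter cells (miR-21 target sequence downstream of FLuc, endogenous miR-21). Readout was firefly luciferase luminescence after lytic detection reagent.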
* = called active by the depositor. Unless noted, calls follow the shape of the dose curve; as a rule, active = well fitted curve in the direction sought with a large enough effect; inconclusive = small, poorly fitted or top-dose-only effect, or another doubt; inactive = no such curve, though single readings can be large; an effect the other way counts as inactive or inconclusive.

Results for O=C(O)COc1cccc(NC(=O)c2ccccc2)c1 ?
Nrf2 ARE act: 2%; Mito fusion act: -4%; A549 viability: -5%; Nrf2 block: 2%; miR-21 FLuc: -3%

How did O=C(COc1cccc(NC(=O)c2cccc([N+](=O)[O-])c2)c1)c1ccc(Br)cc1 do in these assays?
Nrf2 ARE act: 0%; Mito fusion act: 0%; A549 viability: inconclusive; Nrf2 block: 21µM*; miR-21 FLuc: inconclusive

Results for O=C(COCc1cc(-c2cccs2)on1)N1CCN(c2cccc(Cl)c2)CC1 ?
Nrf2 ARE act: 0%; A549 viability: 7%; Nrf2 block: -23%; miR-21 FLuc: inconclusive

What do the screens show for `COc1ccc(Nc2nc3cc(Cl)c(Cl)cc3n3cnnc23)cc1Cl`?
Nrf2 ARE act: 9%; A549 viability: 1%; Nrf2 block: 17%; miR-21 FLuc: -12%

What do the screens show for `CN(C)/C=N/C1=C(C#N)C(c2cccs2)c2ccc3ccccc3c2O1` (stereo not drawn)?
Nrf2 ARE act: 8.9µM*; Mito fusion act: 12%; A549 viability: inconclusive; Nrf2 block: inconclusive; miR-21 FLuc: -17%

Results for N#CC1=C(N)Oc2cc3ccccc3cc2C1c1cccs1 (stereo not drawn) ?
Nrf2 ARE act: 2%; Mito fusion act: 1%; A549 viability: -17%; Nrf2 block: -23%; miR-21 FLuc: 20%

How did CCOC(=O)c1c(NC(C)=O)sc2c1CCC(C=O)=C2Sc1ccccc1 do in these assays?
Nrf2 ARE act: inconclusive; Mito fusion act: 18%; A549 viability: inconclusive; Nrf2 block: 21µM*; miR-21 FLuc: inconclusive

Results for CCOC(=O)c1c(NC(C)=O)sc2c1CCN(Cc1ccccc1)C2 ?
Nrf2 ARE act: 1%; Mito fusion act: -2%; A549 viability: 7%; Nrf2 block: 13%; miR-21 FLuc: 0%

Results for Cc1ccc(C)c(CSc2cn(CCNC(=O)c3cccs3)c3ccccc23)c1 ?
Nrf2 ARE act: -1%; A549 viability: -17%; Nrf2 block: inconclusive; miR-21 FLuc: inconclusive

How did Cc1cccc(CSc2nc3c(sc4ccccc43)c(=O)n2CCC(=O)NC(C)C)c1 do in these assays?
Nrf2 ARE act: 0%; A549 viability: 1%; Nrf2 block: inconclusive; miR-21 FLuc: -7%

Results for Cc1cccc(CSc2cccc3cccnc23)c1 ?
Nrf2 ARE act: 22µM*; Mito fusion act: -4%; A549 viability: -2%; Nrf2 block: -8%; miR-21 FLuc: inconclusive

What do the screens show for `NNC(=O)c1ccc(CSc2cccc3cccnc23)cc1`?
Nrf2 ARE act: 3%; Mito fusion act: -17%; A549 viability: 12%; Nrf2 block: 5%; miR-21 FLuc: -9%

Results for COc1cccc(N2C(=O)N(CC(=O)NCc3cccc(OC)c3OC)c3ccccc3S2(=O)=O)c1 ?
Nrf2 ARE act: 0%; A549 viability: -9%; miR-21 FLuc: 13%

What do the screens show for `CCOc1ccc2[nH]cc(C(=O)NCCc3ccccc3)c(=O)c2c1`?
Nrf2 ARE act: 5%; Mito fusion act: 4%; A549 viability: 10%; Nrf2 block: inconclusive; miR-21 FLuc: 9%

How did CCOc1ccc2[nH]cc(C(=O)NCc3ccccc3)c(=O)c2c1 do in these assays?
Nrf2 ARE act: 0%; Mito fusion act: 1%; A549 viability: -12%; Nrf2 block: 13µM*; miR-21 FLuc: 8%

Results for Cc1cccc(NC(=O)c2cc(-c3ccc4c(c3)OCCO4)on2)c1 ?
Nrf2 ARE act: -1%; A549 viability: 2%; Nrf2 block: inconclusive; miR-21 FLuc: -7%

How did Cc1cc(NC(=O)Cc2ccccc2)c2ccccc2n1 do in these assays?
Nrf2 ARE act: 1%; Mito fusion act: 4%; A549 viability: -2%; Nrf2 block: 9.2µM*; miR-21 FLuc: 21%

What do the screens show for `Cc1cccc(Nc2cc(C)nc3ccccc23)c1`?
Nrf2 ARE act: 10%; Mito fusion act: 1%; A549 viability: inconclusive; Nrf2 block: inconclusive; miR-21 FLuc: 6%

What do the screens show for `Cc1cc(Nc2cccc(Cl)c2)c2ccccc2n1`?
Nrf2 ARE act: 0%; Mito fusion act: 0%; A549 viability: inconclusive; Nrf2 block: 21µM*; miR-21 FLuc: inconclusive

Results for c1ccc(CCc2nc3ccccc3[nH]2)cc1 ?
Nrf2 ARE act: 3%; Mito fusion act: -15%; A549 viability: 21%; Nrf2 block: inconclusive; miR-21 FLuc: -73%

An excerpt from above in order of number of heavy atoms, descending:
How did O=C(COc1cccc(NC(=O)c2cccc([N+](=O)[O-])c2)c1)c1ccc(Br)cc1 do in these assays?
Nrf2 ARE act: 0%; Mito fusion act: 0%; A549 viability: inconclusive; Nrf2 block: 21µM*; miR-21 FLuc: inconclusive

How did CCOC(=O)c1c(NC(C)=O)sc2c1CCC(C=O)=C2Sc1ccccc1 do in these assays?
Nrf2 ARE act: inconclusive; Mito fusion act: 18%; A549 viability: inconclusive; Nrf2 block: 21µM*; miR-21 FLuc: inconclusive

What do the screens show for `CCOc1ccc2[nH]cc(C(=O)NCCc3ccccc3)c(=O)c2c1`?
Nrf2 ARE act: 5%; Mito fusion act: 4%; A549 viability: 10%; Nrf2 block: inconclusive; miR-21 FLuc: 9%

Results for O=C(O)COc1cccc(NC(=O)c2ccccc2)c1 ?
Nrf2 ARE act: 2%; Mito fusion act: -4%; A549 viability: -5%; Nrf2 block: 2%; miR-21 FLuc: -3%

Later entries.
How did Nc1cccc(CCc2nc3cc4ccccc4cc3[nH]2)c1 do in these assays?
Nrf2 ARE act: 0%; Mito fusion act: 20µM*; A549 viability: -16%; Nrf2 block: inconclusive; miR-21 FLuc: -26%

How did Cc1cc(Nc2ccccc2F)n2nc(-c3ccccc3)nc2n1 do in these assays?
Nrf2 ARE act: 1%; A549 viability: 4%; Nrf2 block: 15%; miR-21 FLuc: 2%

What do the screens show for `Cc1ccc(C)c(N2CCN(C(=O)c3ccc(CS(=O)Cc4cccc(Cl)c4)o3)CC2)c1` (stereo not drawn)?
Nrf2 ARE act: 0%; Mito fusion act: 3%; A549 viability: -8%; Nrf2 block: 18µM*; miR-21 FLuc: 5%

Results for COc1ccc(S(=O)(=O)N2CCN(Cc3ccccc3)CC2)c(C)c1 ?
Nrf2 ARE act: 1%; Mito fusion act: -1%; A549 viability: -1%; Nrf2 block: -12%; miR-21 FLuc: -9%

How did Cc1ccc(S(=O)(=O)N2CCN(CCc3ccccc3)CC2)c(C)c1 do in these assays?
Nrf2 ARE act: 2%; Mito fusion act: inconclusive; A549 viability: -2%; Nrf2 block: 18µM*; miR-21 FLuc: 9%

How did Cc1ccc(S(=O)(=O)N2CCN(C(=O)CSC3CCCC3)CC2)c(C)c1 do in these assays?
Nrf2 ARE act: -1%; Mito fusion act: 7%; A549 viability: -12%; Nrf2 block: 26µM*; miR-21 FLuc: 11%

How did CC(=O)NC(CC(=O)OCC(=O)N1CCN(S(=O)(=O)c2ccc(C)cc2C)CC1)c1ccccc1 (stereo not drawn) do in these assays?
Nrf2 ARE act: 1%; Mito fusion act: -3%; A549 viability: 4%; Nrf2 block: 21µM*

What do the screens show for `CCCc1cc(=O)[nH]c(SCC(=O)Nc2sc(C(N)=O)c(C)c2C(=O)OCCOC)n1`?
Nrf2 ARE act: -1%; Mito fusion act: 1%; A549 viability: -3%; Nrf2 block: 5.2µM*

What do the screens show for `CCCc1cc(=O)[nH]c(SCC(=O)NC(=O)OCC)n1`?
Nrf2 ARE act: 0%; Mito fusion act: -4%; A549 viability: -1%; Nrf2 block: 6%; miR-21 FLuc: 1%

Results for COc1ccccc1CCNC(=O)CCc1c(C)c2cc3c(C)coc3c(C)c2oc1=O ?
Nrf2 ARE act: 0%; A549 viability: -5%; Nrf2 block: 17%; miR-21 FLuc: 0%

What do the screens show for `COc1ccc(CNC(=O)CN2C(=O)CSc3ccc(S(=O)(=O)N4CCC(C)CC4)cc32)cc1`?
Nrf2 ARE act: 1%; A549 viability: 0%; miR-21 FLuc: 7%
